By Solubility is commonly meant the concentration that dissolves in the medium under given conditions.

The nature of the series: Water solubility of free base and salts (salt screen). Conditions: 10 mg solids per mL water.

With Malonate, the Solubility amounted to 3 µg/mL.

(Values after US12275706B2, “Malate salt of N-(4-{[6,7-bis(methyloxy) quinolin-4-yl]oxy}phenyl)-N′-(4-fluorophenyl)cyclopropane-1,1-dicarboxamide, and crystalline forms thereof for the treatment of cancer” (Exelixis, Inc., priority 2009, dated 2025).)
